This note sets out measurements from ChEMBL document CHEMBL1125721, “Highly selective kappa opioid analgesics. 4. Synthesis of some conformationally restricted naphthalene derivatives with high receptor affinity and selectivity” (1991).

Chains of the proteins cited; added tags and fusions are not shown.
UniProt P41144, whole entry: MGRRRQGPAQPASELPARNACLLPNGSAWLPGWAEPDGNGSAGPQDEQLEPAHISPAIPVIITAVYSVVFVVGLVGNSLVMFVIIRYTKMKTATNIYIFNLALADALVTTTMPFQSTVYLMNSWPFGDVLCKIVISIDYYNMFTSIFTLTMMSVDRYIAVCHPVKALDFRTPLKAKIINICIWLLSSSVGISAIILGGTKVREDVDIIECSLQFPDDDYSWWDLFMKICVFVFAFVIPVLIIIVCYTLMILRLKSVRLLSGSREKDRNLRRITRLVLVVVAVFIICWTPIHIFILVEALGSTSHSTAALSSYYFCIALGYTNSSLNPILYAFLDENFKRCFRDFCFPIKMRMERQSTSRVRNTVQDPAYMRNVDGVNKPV

Several values for one entry are separate records, joined by “and”; a condition that tells them apart may be missing. Equal entries are not always repeated.

This assay deals with Kappa-type opioid receptor (Cavia porcellus) (UniProt P41144). The assay is described as follows: Ratio measured as the Ki(kappa) to that of Ki(mu) values.
Take `CN(C(=O)C1CCc2c(Br)sc3cccc1c23)[C@H]1CCC2(CCCO2)C[C@@H]1N1CCCC1` (stereo partly drawn): the Ratio is 16 and 14.
Take `CC(C(=O)N(C)[C@H]1CCCC[C@@H]1N1CCCC1)c1cccc2sccc12` (stereo partly drawn): the Ratio is 14.
Consider `CC1c2cccc3cccc(c23)C1C(=O)N(C)[C@H]1CCC2(CCCO2)C[C@@H]1N1CCCC1` (stereo partly drawn), for which the Ratio worked out at 659.
